# Experimental data reported in patent publication US20140171371A1, “Compositions And Methods For The Diagnosis of Schizophrenia” (The Trustees of Columbia University in the City of New York, priority 2011, published 2014).
# Target: T1, VPAC2 (Homo sapiens, UniProt P41587)
# T1 construct: endogenous in cells; host or cells: lymphoblastoid cell lines from MGS study subjects (7q36.3 duplication/triplication carriers and normal copy-number controls)
# T1 sequence (P41587 24-438): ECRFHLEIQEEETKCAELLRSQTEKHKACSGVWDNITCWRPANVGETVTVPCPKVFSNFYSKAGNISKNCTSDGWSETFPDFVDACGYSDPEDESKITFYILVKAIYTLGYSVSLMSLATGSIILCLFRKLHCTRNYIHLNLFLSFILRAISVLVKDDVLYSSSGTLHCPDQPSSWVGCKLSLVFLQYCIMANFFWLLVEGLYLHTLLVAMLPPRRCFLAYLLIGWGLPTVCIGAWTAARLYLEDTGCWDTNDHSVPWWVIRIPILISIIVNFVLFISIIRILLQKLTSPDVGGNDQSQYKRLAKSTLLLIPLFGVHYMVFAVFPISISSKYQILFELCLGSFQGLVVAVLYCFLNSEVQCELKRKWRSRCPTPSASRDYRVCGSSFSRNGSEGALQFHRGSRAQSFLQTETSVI
# Experiment: Cyclic AMP accumulation in lymphoblastoid cell lines in response to VPAC2 agonists (radioimmunoassay)
# Type: cell-based
# Conditions: agonist 100 nM + forskolin 10 μM, IBMX 200 μM pre-incubation, 10 min; fold-change over forskolin/IBMX alone; 9 carriers vs 4 controls
# Method: Cyclic-AMP signaling has been implicated in schizophrenia^51, 52. It was determined whether increases in VIPR2 transcription and VPAC2-mediated cAMP signaling was a consequence of the microduplications at 7q36.3. VIPR2 mRNA and cAMP accumulation in response to VIP and a VPAC2-selective agonist (BAY 55-9837) in lymphoblastoid cell lines from eight MGS study subjects was assessed: two with subtelomeric duplications, three with duplications of VIPR2, four with partial triplications, and four controls with normal copy number of the region.
# Cyclic AMP accumulation was measured in lymphoblastoid cell lines (0.5 million per ml) pre-incubated for 20 minutes with the cyclic nucleotide phosphodiesterase inhibitor isobutylmethylxanthine (IBMX, 200 μM), before the addition of the stimulatory agonists forskolin (10 μM)+/−VIP, [100 nM], BAY 55-9837 (100 nM) or prostaglandin E2 [PGE2, 1 μM] for 10 min. Reactions were terminated by pelleting the cells, aspiration of the medium and addition of 100 μl of cold 7.5% (wt/vol) trichloroacetic acid (TCA). Cyclic AMP content in TCA extracts was determined by radioimmunoassay and normalized to the number of cells per well. Data are expressed as cAMP accumulation in response to the GPCR agonists relative to the response to non-GPCR agonist forskolin (10 μM) and IBMX (200 mM) alone. […]
substance,measurement,value
vasoactive intestinal peptide [VIP],"cAMP accumulation in response to agonist, 7q36.3 duplication/triplication carriers compared to controls",significantly greater
